The numbers were not newly measured in paper PMC9959096, “Selective α3β4 Nicotinic Acetylcholine Receptor Ligand as a Potential Tracer for Drug Addiction” (International Journal of Molecular Sciences, 2023), which cites them from elsewhere.

By UniProt entry, the sequences of proteins in these tests, tags left out. Residues count along the entry.
UniProt P30926, 22-498: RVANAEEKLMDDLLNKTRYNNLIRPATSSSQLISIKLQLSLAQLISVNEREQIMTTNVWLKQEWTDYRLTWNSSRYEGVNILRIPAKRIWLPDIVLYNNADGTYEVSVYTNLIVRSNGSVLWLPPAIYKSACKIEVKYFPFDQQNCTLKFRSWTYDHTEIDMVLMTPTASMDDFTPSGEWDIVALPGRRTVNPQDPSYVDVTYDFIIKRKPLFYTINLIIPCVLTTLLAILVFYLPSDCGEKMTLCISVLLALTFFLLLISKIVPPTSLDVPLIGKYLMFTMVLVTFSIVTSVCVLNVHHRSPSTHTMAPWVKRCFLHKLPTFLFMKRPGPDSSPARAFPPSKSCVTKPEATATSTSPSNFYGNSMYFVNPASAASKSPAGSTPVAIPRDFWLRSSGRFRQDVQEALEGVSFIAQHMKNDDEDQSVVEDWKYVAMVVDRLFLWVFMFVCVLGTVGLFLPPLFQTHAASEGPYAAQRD
UniProt P32297, 32-505: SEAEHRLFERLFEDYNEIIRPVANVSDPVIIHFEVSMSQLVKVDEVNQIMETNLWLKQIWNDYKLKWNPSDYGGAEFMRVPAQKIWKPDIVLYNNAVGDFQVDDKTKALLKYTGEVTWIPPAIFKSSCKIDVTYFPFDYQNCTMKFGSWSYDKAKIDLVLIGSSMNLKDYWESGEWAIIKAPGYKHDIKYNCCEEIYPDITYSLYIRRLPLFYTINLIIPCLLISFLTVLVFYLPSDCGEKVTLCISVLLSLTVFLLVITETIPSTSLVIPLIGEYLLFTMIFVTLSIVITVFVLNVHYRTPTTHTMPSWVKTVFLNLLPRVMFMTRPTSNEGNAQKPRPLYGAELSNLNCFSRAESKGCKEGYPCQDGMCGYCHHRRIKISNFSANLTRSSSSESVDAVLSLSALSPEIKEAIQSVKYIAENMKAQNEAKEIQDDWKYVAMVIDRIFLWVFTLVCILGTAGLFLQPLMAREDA

Like-named read-outs stand apart in the source and are kept apart here. Some results are limits rather than exact numbers.

The Ki is the equilibrium dissociation constant of an inhibitor or competing ligand from its target.

The data set concerns the target T1, human α3β4 nAChR (Homo sapiens, UniProt P30926+P32297).
T1 construct: expressed in transfected cells
As to conditions: cited from earlier work.

Consider `CN1C2CCCC1CC(Nc1ccccc1Br)C2` (centres unmarked) [AT-1001], for which the inhibition constant (Ki) is 2.6 nM (lead/reference compounds, read-out: Binding Affinity Ki α3β4) and less than 10 nM (selective α3β4 nAChR ligands, read-out: Ki).
